Results as given in patent US12037368B2, “Antimicrobial type-II bacteriocins” (priority 2017, dated 2024).

Test system: Staphylococcus aureus (ISP 479C, ISP 479R)
Experiment: Radial diffusion antimicrobial assay, S. aureus
Assay type: cell-based
Settings: pH 5.5 (phagolysosomal/wound septic buffer), compared with pH 7.5
Experimental: Antimicrobial assays were performed using a well-established radial diffusion method modified to pH 5.5 or 7.5. A panel of microorganisms was tested: Gram-positive Staphylococcus aureus (ISP 479C, ISP 479R); Gram-negative Salmonella typhimurium (MS 5996s, MS 14028), Pseudomonas aeruginosa (PA01), Acinetobacter baumanni (17928) and the fungus Candida albicans (36082S, 36082R). Logarithmic phase organisms were inoculated (10^6 CFU/ml) into buffered agarose, and poured into plates. Peptides (10 μg) were introduced into wells in the seeded matrix, and incubated for 3 h at 37° C. Nutrient overlay medium was applied, and assays incubated at 37° C. or 30° C. for bacteria or fungi, respectively. After 24 h, zones of inhibition were measured. Independent experiments were repeated a minimum of two times.

## KTIATNATYYPNKWAKSAGKWIASKIK [Peptide 3, synthesized putative bacteriocin from B3ZXE9, Bacillus cereus]
  activity against Gram positive S. aureus at pH 5.5: lost nearly all of its activity
